From patent US6310072A (priority 1995, dated 2001)

Sequences of proteins named here, by UniProt entry; tags and fusion partners are left off. A change or cut given only in a name is not applied to a line headed by its entry.
UniProt P41144: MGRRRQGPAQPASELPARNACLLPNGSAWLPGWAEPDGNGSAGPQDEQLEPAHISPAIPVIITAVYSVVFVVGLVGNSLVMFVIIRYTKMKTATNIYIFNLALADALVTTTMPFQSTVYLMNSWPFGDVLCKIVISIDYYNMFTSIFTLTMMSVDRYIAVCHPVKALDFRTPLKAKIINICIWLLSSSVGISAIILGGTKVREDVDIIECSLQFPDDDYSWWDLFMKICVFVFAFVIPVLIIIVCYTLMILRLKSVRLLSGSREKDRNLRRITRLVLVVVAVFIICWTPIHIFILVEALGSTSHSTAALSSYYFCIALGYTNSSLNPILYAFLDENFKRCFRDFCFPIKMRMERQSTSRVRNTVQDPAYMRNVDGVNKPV

Biological target: T1, κ1-opioid receptor (Cavia porcellus, UniProt P41144)
T1 construct: from tissue; host or cells: whole brain membranes of adult male albino guinea-pigs
Test: Radioligand binding assay, displacement of [3H]U69,593 in guinea-pig brain membranes

In the case of `CCC12CCN(CC3(O)CC3)C(Cc3ccc(O)cc31)C2(C)C` (stereo not shown) [bremazocine], the Ki is reported as 0.4 nM.
